Experimental data taken from ChEMBL document CHEMBL5154939, “Improved Binding Affinity and Pharmacokinetics Enable Sustained Degradation of BCL6 In Vivo” (J Med Chem, 2022).

Target: B-cell lymphoma 6 protein (Homo sapiens, UniProt P41182)
Assay: Degradation of BCL6 in human OCI-Ly1 cells incubated for 2 hrs by MSD assay
Assay type: cell-based
Summary of the method: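 Lysates were read by MSD sandwich immunoassay (goat capture, rabbit detection anti-BCL6, electrochemiluminescence). Signal was normalised to DMSO (high) and a reference degrader control at 2 μM (low). DC50 came from a four-parameter logistic fit, with Dmax reported.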

EC50: 0.08 µM
Compound: Cn1c(=O)n(CCC(C)(C)O)c2cc(Nc3nc(N4CCC(F)(F)C(CO)C4)ncc3Cl)ccc21 (racemic)
